Key:
Test in all cases: kinetic table of the IgG; KD marked '*…' (bivalent IgG); method not named for this figure (SPR protocol in paragraph 207)
[1] = molecular target: T1, FZD1 CRD, Fc-tagged (human, UniProt Q9UP38 70-250)
T1 construct: domain: CRD; Bought; not shown: Fc tag of the purchased fusion

[2] = molecular target: T2, FZD2 CRD, Fc-tagged (human, UniProt Q14332 24-190)
T2 construct: domain: CRD; Bought; not shown: Fc tag of the purchased fusion

[3] = molecular target: FZD7 CRD, Fc-tagged (human, UniProt O75084 33-185)

- Kd [1]: 0.0251 nM
- Kd [2]: 0.0239 nM
- Kd [3]: 0.0123 nM
B1: pan-FZD antibody 5019 (antibody, V domains shown)
VH: EVQLVESGGGLVQPGGSLRLSCAASGFNIGSSSIHWVRQAPGKGLEWVASIYSAFASTSYADSVKGRFTISADTSKNTAYLQMNSLRAEDTAVYYCARYHFPFGFALDYWGQGTLVTVSS
VL: DIQMTQSPSSLSASVGDRVTITCRASQSVSSAVAWYQQKPGKAPKLLIYSASSLYSGVPSRFSGSRSGTDFTLTISSLQPEDFATYYCQQGVYLFTFGQGTKVEIK
notes: also called F^P; FP

Reference: US20210032352A1 (ANTERA THERAPEUTICS, published 2021)
